Data reported in ChEMBL document CHEMBL1133928, “Design and synthesis of glycolic and mandelic acid derivatives as factor Xa inhibitors” (Bioorg Med Chem Lett, 2001).

Sequences of proteins named here, by UniProt entry; tags and fusion partners are left off.
UniProt P07477, whole entry: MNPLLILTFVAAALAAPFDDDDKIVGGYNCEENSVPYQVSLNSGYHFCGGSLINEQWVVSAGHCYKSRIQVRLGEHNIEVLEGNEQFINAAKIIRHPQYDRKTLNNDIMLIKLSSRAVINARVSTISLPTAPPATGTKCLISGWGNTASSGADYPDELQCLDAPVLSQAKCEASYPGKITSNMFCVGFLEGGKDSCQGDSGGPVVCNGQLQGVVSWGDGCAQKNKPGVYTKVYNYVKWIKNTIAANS

Target: Serine protease 1 (Homo sapiens, UniProt P07477)
Experiment: In vitro inhibitory activity against trypsin

Q: Which IC50 does the source give for N=C(N)c1cccc(OC(C(=O)Nc2ccc(N3CCOCC3)c(F)c2)c2ccccc2)c1 (stereo unspecified) here?
A: > 10 µM
